Assay: Zeta potential of particulate composites modified with PEG-peptide-Ad agents (Example 49)
Assay type: physicochemical
Conditions: 12/pCMV-Luc, 2 CD:1 PEG

Substance: Glucose-PEG3400-CAEAEAEAE-Ad [Glu-PEG-Pep-Ad]
- zeta potential (sign): negative

Reference: patent publication US8092833B2, “Compositions containing inclusion complexes” (California Institute of Technology, priority 2000, dated 2012)
